Laboratory results as given in patent US20040185071A1, “Oil-based compositon comprising sterols” (priority 2001, published 2004).

Assay: Evaluation of the solubility of sterols (Generol, a phytosterol) in various oils, visual after 24 hours
Format: physicochemical
Conditions: visual evaluation after 24 hours

Glycerol monocapric acid ester
Good: Solubility Generol ® 1% (1% by weight Generol dissolved in the glycerol fatty acid ester) | Solubility Generol ® 3% (3% by weight Generol dissolved in the glycerol fatty acid ester) | Solubility Generol ® 5% (5% by weight Generol dissolved in the glycerol fatty acid ester) | Solubility Generol ® 7% (7% by weight Generol dissolved in the glycerol fatty acid ester)
